Measurements: patent publication US20160160213A1, “METHODS OF TREATING CANCER AND PREVENTING CANCER DRUG RESISTANCE” (Genentech, Inc., priority 2013, published 2016)

Amino acid sequences for entries named in this document (tags omitted).
UniProt Q15910, whole entry: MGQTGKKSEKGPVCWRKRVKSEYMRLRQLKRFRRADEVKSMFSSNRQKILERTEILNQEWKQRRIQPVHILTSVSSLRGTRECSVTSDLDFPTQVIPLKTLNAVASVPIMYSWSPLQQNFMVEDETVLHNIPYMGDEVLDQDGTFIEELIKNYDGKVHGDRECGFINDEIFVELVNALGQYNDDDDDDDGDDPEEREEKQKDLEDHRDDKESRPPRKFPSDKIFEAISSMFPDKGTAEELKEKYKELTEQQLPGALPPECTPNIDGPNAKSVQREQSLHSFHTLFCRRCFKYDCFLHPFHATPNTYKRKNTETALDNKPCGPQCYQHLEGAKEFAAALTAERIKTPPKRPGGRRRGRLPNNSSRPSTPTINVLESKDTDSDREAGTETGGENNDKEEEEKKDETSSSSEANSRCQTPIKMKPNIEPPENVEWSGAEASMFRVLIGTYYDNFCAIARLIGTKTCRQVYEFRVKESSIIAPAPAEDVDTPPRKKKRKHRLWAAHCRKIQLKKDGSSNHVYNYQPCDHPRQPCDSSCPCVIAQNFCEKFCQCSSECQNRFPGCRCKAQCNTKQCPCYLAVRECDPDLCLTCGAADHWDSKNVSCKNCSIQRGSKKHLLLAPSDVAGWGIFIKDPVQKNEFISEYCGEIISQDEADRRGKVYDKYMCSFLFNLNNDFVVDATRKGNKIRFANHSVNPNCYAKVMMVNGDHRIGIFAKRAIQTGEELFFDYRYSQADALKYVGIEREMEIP

Legend:
EZH2 = EZH2 (Homo sapiens, UniProt Q15910); conditions: read-out: EZH2 Ki^app; cited from earlier work
EVSAT DTP = assay: EZH2 inhibitors on EVSAT DTP cell growth with PI3K inhibitor (IncuCyte); format: cell-based; conditions: GDC-0908 2 μM; GSK126 0.1, 0.5, 2.5 μM; EPZ-6438 0.05, 0.1, 0.5 μM
PC9 DTP = assay: EZH2 inhibitors on PC9 DTP cell growth with erlotinib (IncuCyte, Giemsa); format: cell-based, human; conditions: erlotinib 1 μM; GSK126 0.1-2.5 μM; EPZ-6438 0.05-1.5 μM; day 9 and 30 days

SMILES | Ki (EZH2) [nM] | cell growth of EVSAT DTP with PI3 kinase inhibitor (EVSAT DTP) | cell growth of PC9 DTP with erlotinib (PC9 DTP)
CCCc1cc(C)[nH]c(=O)c1CNC(=O)c1cc(-c2ccnc(N3CCN(C)CC3)c2)cc2c1cnn2C(C)C [Compound 6] | 1.2 ± 0.2 |  | 
CCN(c1cc(-c2ccc(CN3CCOCC3)cc2)cc(C(=O)NCc2c(C)cc(C)[nH]c2=O)c1C)C1CCOCC1 [EPZ-6438, N-((4,6-dimethyl-2-oxo-1,2-dihydropyridin-3-yl)methyl)-5-(ethyl(tetrahydro-2H-pyran-4-yl)amino)-4-methyl-4′-(morpholinomethyl)-[1,1′-biphenyl]-3-carboxamide] |  | effective in reducing cell growth in a dose dependent manner | effective in reducing cell growth in a dose dependent manner
